For the data set, the target named is T1, Cytochrome P450 11B2, mitochondrial (Homo sapiens, UniProt P19099).
T1 sequence (P19099 whole entry): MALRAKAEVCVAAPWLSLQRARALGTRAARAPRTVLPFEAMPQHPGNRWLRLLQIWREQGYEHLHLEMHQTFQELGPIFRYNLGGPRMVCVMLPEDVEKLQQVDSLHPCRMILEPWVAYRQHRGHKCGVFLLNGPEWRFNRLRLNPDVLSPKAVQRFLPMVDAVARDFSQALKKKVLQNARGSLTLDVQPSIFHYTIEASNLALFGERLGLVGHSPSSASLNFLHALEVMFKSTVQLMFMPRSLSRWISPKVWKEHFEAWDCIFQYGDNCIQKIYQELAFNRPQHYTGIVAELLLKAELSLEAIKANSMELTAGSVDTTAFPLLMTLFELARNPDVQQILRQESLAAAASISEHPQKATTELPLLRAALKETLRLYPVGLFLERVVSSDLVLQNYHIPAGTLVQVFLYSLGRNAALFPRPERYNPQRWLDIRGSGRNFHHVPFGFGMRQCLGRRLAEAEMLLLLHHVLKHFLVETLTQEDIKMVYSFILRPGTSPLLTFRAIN
In words: Inhibition Assay: Assays are performed in 96-well format in a final volume of 60 μL/well, containing 100 mM potassium phosphate, pH 7.4, 1% (v/v) DMSO, and additionally, 2 μM of corticosterone and 50 units of CYP11B2 activity. Reactions are started by the addition of NADPH to 1 mM and allowed to proceed for 90 minutes at 37° C. Reactions are terminated by the addition of 60 μL of MeCN containing an internal standard for mass spectrometry. One hundred microliters are then transferred to a glass filter plate and centrifuged at 570×g for 5 minutes and the filtrate is collected. Reaction product aldosterone is quantified by mass spectrometry. To determine the assay blank value (0% activity), NADPH is omitted from some reactions.

On to `NC(=O)c1cccc2c1OCC(c1cncc(CC(=O)N3CCOCC3)c1)O2` (single isomer, unassigned), for which the IC50 is over 1 µM.
